Test results taken from PMC7723054.
The other results are listed elsewhere or left out.

T1: LIN28A (human?, UniProt Q9H9Z2 1-209)
T1 sequence: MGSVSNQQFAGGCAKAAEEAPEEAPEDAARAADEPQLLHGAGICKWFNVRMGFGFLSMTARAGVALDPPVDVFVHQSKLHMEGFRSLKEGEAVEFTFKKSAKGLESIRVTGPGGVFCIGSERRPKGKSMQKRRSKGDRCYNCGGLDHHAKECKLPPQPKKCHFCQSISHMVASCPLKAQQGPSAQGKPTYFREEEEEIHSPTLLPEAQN

T2: CIRBP (Homo sapiens, UniProt Q14011 1-172)
T2 sequence: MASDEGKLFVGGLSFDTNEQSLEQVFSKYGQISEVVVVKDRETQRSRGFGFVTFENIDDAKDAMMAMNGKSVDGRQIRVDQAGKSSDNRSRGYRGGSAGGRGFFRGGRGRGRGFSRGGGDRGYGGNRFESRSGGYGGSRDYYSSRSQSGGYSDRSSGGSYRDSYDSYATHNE

T3: DHX36 (Homo sapiens, UniProt Q9H2U1 1-1008)
T3 sequence: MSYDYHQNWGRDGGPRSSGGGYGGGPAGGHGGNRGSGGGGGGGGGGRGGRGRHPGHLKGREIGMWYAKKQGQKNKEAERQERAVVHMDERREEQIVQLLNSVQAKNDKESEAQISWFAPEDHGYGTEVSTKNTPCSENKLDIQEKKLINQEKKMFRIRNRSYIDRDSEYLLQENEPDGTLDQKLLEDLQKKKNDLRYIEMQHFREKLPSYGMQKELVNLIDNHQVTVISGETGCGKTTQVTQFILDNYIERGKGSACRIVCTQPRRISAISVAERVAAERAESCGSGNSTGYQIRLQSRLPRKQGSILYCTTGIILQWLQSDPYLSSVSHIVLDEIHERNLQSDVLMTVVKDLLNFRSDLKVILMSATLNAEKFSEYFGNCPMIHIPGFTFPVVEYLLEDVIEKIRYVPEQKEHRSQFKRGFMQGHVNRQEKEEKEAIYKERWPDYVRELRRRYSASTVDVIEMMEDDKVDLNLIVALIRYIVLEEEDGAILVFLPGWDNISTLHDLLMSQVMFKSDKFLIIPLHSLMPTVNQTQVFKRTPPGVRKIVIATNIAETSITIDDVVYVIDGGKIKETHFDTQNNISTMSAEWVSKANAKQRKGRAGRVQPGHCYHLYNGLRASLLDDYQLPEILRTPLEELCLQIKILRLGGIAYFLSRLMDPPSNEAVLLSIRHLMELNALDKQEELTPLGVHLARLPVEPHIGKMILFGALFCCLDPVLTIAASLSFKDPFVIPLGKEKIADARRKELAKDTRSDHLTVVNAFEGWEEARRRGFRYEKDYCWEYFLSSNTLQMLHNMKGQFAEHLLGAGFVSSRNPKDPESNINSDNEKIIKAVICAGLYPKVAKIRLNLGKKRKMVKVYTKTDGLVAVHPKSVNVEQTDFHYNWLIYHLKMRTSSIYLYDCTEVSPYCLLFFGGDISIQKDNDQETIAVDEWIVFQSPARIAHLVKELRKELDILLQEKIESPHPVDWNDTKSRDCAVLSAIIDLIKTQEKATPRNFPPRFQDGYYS

B1: hsa-mir-6882 (structured_RNA)
RNA: GGGAGACUGUAACCGUUGAUUGCCUACAGGUGUACGAAGUUUCAGCGCAGCUGGAAUUCAAGCCCUGCUGCGCUGAAGCUUCGUGCAC
B2: hsa-mir-4696 (structured_RNA)
RNA: GGGAAACAUGGGAAUCCACUUAUGCUCGGGUGUACGAAGUUUCAGCAUCUAUUCCAGAAGAUGCUGAAGCUUCGUGCAC
B3: hsa-mir-4645 (structured_RNA)
RNA: GGGCAAGCGGCCACUUAAAACAGCGAAAGGUGUACGAAGUUUCAGCUUGUCUCCUCAAGUUGCGACGAGACAGGCUGAAGCUUCGUGCAC
B4: hsa-mir-3926-1 (structured_RNA)
RNA: GGGAACUAACGGACAAUGCGUGUUUUAAGGUGUACGAAGUUUCAGCGAGACUUUAAAAGCGUCUCGCUGAAGCUUCGUGCAC
B5: hsa-mir-589 (structured_RNA)
RNA: GGGAUGGAGAACAAGCGCGCGGUACAUUGGUGUACGAAGUUUCAGCCUGAGCUGGGUACUGCCUGUUCAGGCUGAAGCUUCGUGCAC
B6: hsa-mir-6889 (structured_RNA)
RNA: GGGAAAAGCGAUAACCGGUGGCCGUCUUGGUGUACGAAGUUUCAGCCGGAAUUCUCCAGAGCCUCUGGCUGAAGCUUCGUGCAC
B7: hsa-mir-4539 (structured_RNA)
RNA: GGGAAAGCAUGCCAGGUGUUAUGGCUAAGGUGUACGAAGUUUCAGCUGCUGUGCUGUGCUGAGCAGGGCUGAGCUGGCUGAAGCUUCGUGCAC
B8: hsa-mir-548i-4 (structured_RNA)
RNA: GGGAACCGGGGUUUAGAUUAUACCCGCCGGUGUACGAAGUUUCAGCUGCCAUACUUUUAACGGCAGCUGAAGCUUCGUGCAC
B9: hsa-mir-6859-1_6859-3_6859-2_6859-4 (structured_RNA)
RNA: GGGACACGUUACGCUGGAUAGACAACGCGGUGUACGAAGUUUCAGCCUCAGGACAGCGGGUGUCAGCUUGCCUGACGCUGAAGCUUCGUGCAC
B10: hsa-mir-1302-7 (structured_RNA)
RNA: GGGAAGAUUCGUACGCUCAGGACCUACUGGUGUACGAAGUUUCAGCUGGUGCAAUAAUUGGGCUGAAGCUUCGUGCAC
B11: hsa-mir-3612 (structured_RNA)
RNA: GGGAACUGCGUUCGGGCAUGAUCCCUAGGGUGUACGAAGUUUCAGCUGGAAGGAAUGGGAUCUACUUCCAGCUGAAGCUUCGUGCAC
B12: hsa-mir-3689d-1 (structured_RNA)
RNA: GGGAACAUAGUAUGACGUCCGGCUACUCGGUGUACGAAGUUUCAGCCUCGCUGGGAGGUGUGCUAUCGUCUUCCCCGGGAGGCUGAAGCUUCGUGCAC
B13: hsa-mir-19b-2 (structured_RNA)
RNA: GGGAUCUGUGCCAUCCGGGCUAACGUAUGGUGUACGAAGUUUCAGCCAUUUCAGCGUAUAUAUGUAUAUGUGGCUGUGGCUGAAGCUUCGUGCAC

target: T1, LIN28A; assay: FOREST: bead pull-down of RNA structure library v1, barcode microarray; U1A/LIN28A: 20 mM HEPES pH 7.5, 80 mM KCl, 20 mM NaCl, 10% glycerol, 2 mM DTT, 0.1 ug/uL BSA, 4 C; BG4/CIRBP/DHX36: 10 mM Tris-HCl pH 7.5, 100 mM KCl (or LiCl),; high values mean tight binding

**Q.** With B1 as the binder, how does the binding signal read?
**A.** -0.0445 z-score

**Q.** Which binding signal does the source give for B2 here?
**A.** -0.0371 z-score

**Q.** With B3 as the binder, how does the binding signal read?
**A.** -0.0427 z-score

**Q.** For B4, which binding signal is on record?
**A.** -0.0533 z-score

**Q.** B5 was tested. Which binding signal did it give?
**A.** -0.0305 z-score

**Q.** B6 was tested. Which binding signal did it give?
**A.** -0.0337 z-score

**Q.** How did the binding signal turn out when B7 was run?
**A.** -0.0318 z-score

**Q.** Which binding signal does the source give for B8 here?
**A.** -0.0391 z-score

**Q.** For B9, which binding signal is on record?
**A.** -0.0371 z-score

**Q.** How did the binding signal turn out when B10 was run?
**A.** -0.0267 z-score

**Q.** How did the binding signal turn out when B11 was run?
**A.** -0.0292 z-score

**Q.** For B12, which binding signal is on record?
**A.** -0.0356 z-score

**Q.** For B13, which binding signal is on record?
**A.** -0.043 z-score

target: T2, CIRBP; assay: as above

**Q.** B1 was tested. Which binding signal did it give?
**A.** 1.07 z-score

**Q.** For B2, which binding signal is on record?
**A.** 0.163 z-score

**Q.** For B3, which binding signal is on record?
**A.** 0.045 z-score

**Q.** B4 was tested. Which binding signal did it give?
**A.** 0.893 z-score

**Q.** B5 was tested. Which binding signal did it give?
**A.** -0.556 z-score

**Q.** For B6, which binding signal is on record?
**A.** -0.316 z-score

**Q.** B7 was tested. Which binding signal did it give?
**A.** -0.0769 z-score

**Q.** With B8 as the binder, how does the binding signal read?
**A.** 0.877 z-score

**Q.** With B9 as the binder, how does the binding signal read?
**A.** 0.215 z-score

**Q.** B10 was tested. Which binding signal did it give?
**A.** 0.33 z-score

**Q.** For B11, which binding signal is on record?
**A.** 0.264 z-score

**Q.** Which binding signal does the source give for B12 here?
**A.** -1.02 z-score

**Q.** How did the binding signal turn out when B13 was run?
**A.** -1.09 z-score

target: T3, DHX36; assay: as above

**Q.** How did the binding signal turn out when B1 was run?
**A.** -0.354 z-score

**Q.** For B2, which binding signal is on record?
**A.** -0.273 z-score

**Q.** With B3 as the binder, how does the binding signal read?
**A.** -0.707 z-score

**Q.** B4 was tested. Which binding signal did it give?
**A.** -0.456 z-score

**Q.** How did the binding signal turn out when B5 was run?
**A.** 1.66 z-score

**Q.** For B6, which binding signal is on record?
**A.** -0.756 z-score

**Q.** B7 was tested. Which binding signal did it give?
**A.** -0.556 z-score

**Q.** B8 was tested. Which binding signal did it give?
**A.** -0.158 z-score

**Q.** Which binding signal does the source give for B9 here?
**A.** -0.87 z-score

**Q.** How did the binding signal turn out when B10 was run?
**A.** -0.859 z-score

**Q.** For B11, which binding signal is on record?
**A.** 0.418 z-score

**Q.** B12 was tested. Which binding signal did it give?
**A.** 0.644 z-score

**Q.** B13 was tested. Which binding signal did it give?
**A.** -1.3 z-score
